By UniProt entry, the sequences of proteins in these tests, tags left out.
UniProt Q86SK9, whole entry: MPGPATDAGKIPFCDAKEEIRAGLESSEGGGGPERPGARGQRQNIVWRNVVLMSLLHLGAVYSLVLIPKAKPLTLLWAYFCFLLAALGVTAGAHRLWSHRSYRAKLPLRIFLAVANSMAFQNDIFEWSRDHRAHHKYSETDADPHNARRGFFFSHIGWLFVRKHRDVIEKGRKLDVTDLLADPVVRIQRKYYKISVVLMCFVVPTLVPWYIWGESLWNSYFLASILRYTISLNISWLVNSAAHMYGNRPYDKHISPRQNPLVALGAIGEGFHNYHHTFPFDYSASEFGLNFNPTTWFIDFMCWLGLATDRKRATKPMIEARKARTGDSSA

In patent US20230078764A1 (Yumanity Therapeutics, Inc., priority 2019, published 2023):

Molecular target: human SCD5 (Homo sapiens, UniProt Q86SK9)
Assay: Growth inhibition of yeast strain expressing human SCD5 as sole desaturase (OLE1 deleted), OD600 readout
Format: cell-based
Settings: read-out: SCD5 IC50, growth (OD600) after 40 h at 30° C.

## CN1N=C(C(=O)Nc2ccc(Cc3ccc(Cl)c(F)c3)cn2)CCC1=O [Compound 11, N-(5-(4-chloro-3-fluorobenzyl)pyridin-2-yl)-1-methyl-6-oxo-1,4,5,6-tetrahydropyridazine-3-carboxamide]
  IC50: 20 nM
